Laboratory results reported in patent publication US6812034B2, “Fetuin-MGP-mineral complex in serum assayed to determine calcification risk” (The Regents of the University of California, priority 2000, dated 2004).

Tests used:
[1] = serum levels of calcium and phosphate in rats treated with vitamin D plus warfarin; format: in vivo, rat; conditions: 84 h
[2] = weight, tibia length and serum calcium and phosphate in warfarin-treated rats; format: in vivo, rat; conditions: 0.25 mg P/kg/day plus warfarin, 4 weeks

Structure (SMILES): NCCCC(O)(P(=O)(O)O)P(=O)(O)O [Alendronate, (4-amino-1-hydroxybutylidene)bis-phosphonate]
- Serum Ca ([1]; 0.002 mg P/kg/day): 13.6 ± 0.2 mg/dL
- Serum Ca ([1]; 0.05 mg P/kg/day): 15.5 ± 0.4 mg/dL
- Ending wt [2]: 300 ± 5 gm
